From ChEMBL document CHEMBL1130317 (J Med Chem, 1997)

Target: T1, Aldo-keto reductase family 1 member A1 (Rattus norvegicus) (UniProt P51635)
T1 sequence (whole entry): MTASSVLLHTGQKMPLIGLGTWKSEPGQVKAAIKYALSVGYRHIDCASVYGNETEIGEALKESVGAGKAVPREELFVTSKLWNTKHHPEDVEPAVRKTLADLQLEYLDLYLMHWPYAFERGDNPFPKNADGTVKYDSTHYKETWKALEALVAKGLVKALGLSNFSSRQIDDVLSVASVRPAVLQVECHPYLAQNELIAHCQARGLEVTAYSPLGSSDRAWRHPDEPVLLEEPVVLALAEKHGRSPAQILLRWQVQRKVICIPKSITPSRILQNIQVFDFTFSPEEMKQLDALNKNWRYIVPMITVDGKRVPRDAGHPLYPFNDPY
Test: Percent inhibition of rat kidney Aldehyde reductase (ALR) at 1x10E-4 M

inhibition: 0%
Structure (SMILES): O=C(O)CN1C(=O)CN(Cc2cccc([N+](=O)[O-])c2)C1=O
